## Apparent affinities of Ab-14 variants for a coronavirus HR2 peptide

Data: MIT Lincoln Laboratory AlphaSeq set, Li et al. 2023, doi:10.1038/s41467-023-39022-2, as distributed in FLAb.

Binding partner: SARS-CoV-2 spike HR2 peptide, sequence PDVDLGDISGINAS.

The variants keep the heavy chain, the linker and the frameworks of Ab-14 (scFv order VH, a 15-residue (Gly4Ser)3 linker, VL).
VH: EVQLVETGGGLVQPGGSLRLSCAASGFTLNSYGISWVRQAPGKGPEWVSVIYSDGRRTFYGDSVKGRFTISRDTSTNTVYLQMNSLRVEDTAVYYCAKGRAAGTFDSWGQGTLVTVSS
VL: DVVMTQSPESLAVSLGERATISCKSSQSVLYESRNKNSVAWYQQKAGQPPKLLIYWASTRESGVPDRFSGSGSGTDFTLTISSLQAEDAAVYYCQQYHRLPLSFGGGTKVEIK

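The parent was found by panning a naive human phage display library on the peptide. These sequences belong to a second round, designed from the earlier measurements on random variants of the parent. Group labels follow the data file (Ctrl: baseline library sampled from a position-specific scoring matrix, with some repeated check sequences; Rand: our label for a block that the file lists under HC and that is probably the random mutants of the ten best first-round binders; GP: Gaussian process model; HC: hill climbing; Gen: genetic algorithm; Gibbs: Gibbs sampling; a sequence that several methods proposed may carry one label only). The scFvs were displayed on barcoded MATa yeast, the peptide on MATalpha yeast. Pairs that bind mate more often; barcode pairs of the diploids are counted by sequencing. The ratio of observed to expected reads was calibrated, replicate by replicate, on BCL2-family standards whose Kd was known from biolayer interferometry. Each pool was mated in six replicate cultures.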

Substitutions are numbered in sequence along the VL above, starting at 1 (not Kabat).
This list holds designs with at most six substitutions.
Kd is apparent (estimated from mating counts) and averaged on the log scale over replicates with a signal. Smaller is tighter.
Where no diploid with the target was found in any replicate, the entry reads "not detected": below detection, most likely a poor binder, though not proof of it.
Nonspecific signal, from three strains lacking the peptide, appeared in 4% of pairings of all light chain designs, centred on 430 nM (5% of these signals below 38 nM); values are not corrected for it.
In the paper, a design with two or fewer of six values counts as a poor binder.
A sequence measured in both rounds can read differently, since the two assays cover different ranges.

changes,group,apparent Kd,replicates with signal
S25V/S26C/N35M/W56Q,Ctrl,1.8 nM,6 of 6
V29F/N35M/W56G/T59Q,GP_HC,500 pM,6 of 6
L30E,Ctrl,970 nM,2 of 6
Y97R,Ctrl,not detected,0 of 6
S25Y/W56D/E61R,Ctrl,1.9 nM,6 of 6
S25F/N35T/S38G/W56N,Rand,660 pM,6 of 6
S25L/N37G/W56N,GP_Gen,1.8 nM,1 of 6
S25L/S26Y/V29G/W56S/T59M/H98F,GP_Gibbs,260 pM,6 of 6
S25H/N35V/W56D/T59Q,GP_Gibbs,2.9 nM,6 of 6
Q27H/V29D/S33F/R60H/S62Q/H98N,Ctrl,not detected,0 of 6
S26Q/V29E/W56N/E61L,GP_Gen,720 pM,6 of 6
K24H/Q27C/W56Q/T59P,Rand,not detected,0 of 6
L30H/N37D/L102C,Ctrl,5.8 µM,1 of 6
S25L/S26Q/Q27S/V29T/N35Q,GP_HC,150 nM,5 of 6
S62P/Q96V,Ctrl,66 nM,1 of 6
S25L/S26V/K36D/V39I,Ctrl,100 nM,3 of 6
S25L/V29E/W56G,GP_Gen,1.0 nM,6 of 6
S26L/Q27W/R34M/W56H/S62D,GP_HC,4.3 nM,6 of 6
S25L/S26Q/V29W/W56N/E61M,GP_Gen,3.9 nM,6 of 6
L30D/Y31N/S33M/W56D,GP_HC,1.5 nM,6 of 6
S28G/W56A/R60L/S62P,Ctrl,3.7 nM,6 of 6
S25L/S26P/W56A/S62V,GP_Gen,580 pM,6 of 6
S25L/V39I/W56H/Q95G,Ctrl,7.9 nM,6 of 6
S25L/S26A/W56H/S62D,GP_HC,850 pM,6 of 6
K36G/S38H/H98E,Ctrl,not detected,0 of 6
S25L/S26Q/V29Q/L30E/W56N/S62D,GP_HC,780 pM,6 of 6
S25L/S26P/V29N/W56N/E61L,GP_Gen,920 pM,6 of 6
S28G/S33N/W56N/S58R,Ctrl,6.5 nM,6 of 6
S26M/Q27W/R34N/W56H/S62D,GP_HC,1.6 nM,6 of 6
S25V/Q27G/V29H/W56N,GP_Gen,920 pM,6 of 6
S33D/W56H,Ctrl,960 pM,6 of 6
Q27K/V29G/Y31F/W56N,GP_HC,830 pM,6 of 6
S25M/S38N/W56D/T59Q,GP_Gen,320 pM,6 of 6
S25F/S26H/Q95L/H98A/R99E,Ctrl,not detected,0 of 6
S25L/S26V/W56N/S62V,GP_Gen,460 pM,6 of 6
Y31W/W56R/S62M/Q96V/H98A,Ctrl,not detected,0 of 6
S25I/Q27N/S103A,Ctrl,4.2 nM,6 of 6
W56D/R99G,Ctrl,7.2 nM,6 of 6
S25V/S26Q/V29N/W56N/E61L,GP_Gen,860 pM,6 of 6
S26M/S33N,Ctrl,580 nM,3 of 6
V29G/N35S/Q96S,Ctrl,2.0 µM,3 of 6
S25L/Q27G/V29F/W56E,GP_Gen,740 pM,6 of 6
S25V/V29N/W56E/T59Q,GP_Gen,270 pM,6 of 6
S25L/V29E/N35M/W56N/E61L,GP_Gen,3.6 nM,6 of 6
S25V/R34G/N35T/W56N/T59K,GP_HC,1.0 nM,6 of 6
Y31E/E32N/W56S,Ctrl,2.1 nM,6 of 6
S25L/V29F/W56G/T59Q,GP_Gen,400 pM,6 of 6
S25L/S26P/V29G/W56E,GP_Gen,8.7 nM,6 of 6

Top 5 of the variants detected in all replicates, tightest first:

changes	group	apparent Kd	replicates with signal
S25L/S26Y/V29G/W56S/T59M/H98F	GP_Gibbs	260 pM	6 of 6
S25V/V29N/W56E/T59Q	GP_Gen	270 pM	6 of 6
S25M/S38N/W56D/T59Q	GP_Gen	320 pM	6 of 6
S25L/V29F/W56G/T59Q	GP_Gen	400 pM	6 of 6
S25L/S26V/W56N/S62V	GP_Gen	460 pM	6 of 6